# Earlier results in patent US20200297696A1, “P38 INHIBITORS FOR THE TREATMENT OF FSHD” (Saint Louis University, priority 2017, published 2020).
# Chains of the proteins cited; added tags and fusions are not shown.
# UniProt Q16539, whole entry: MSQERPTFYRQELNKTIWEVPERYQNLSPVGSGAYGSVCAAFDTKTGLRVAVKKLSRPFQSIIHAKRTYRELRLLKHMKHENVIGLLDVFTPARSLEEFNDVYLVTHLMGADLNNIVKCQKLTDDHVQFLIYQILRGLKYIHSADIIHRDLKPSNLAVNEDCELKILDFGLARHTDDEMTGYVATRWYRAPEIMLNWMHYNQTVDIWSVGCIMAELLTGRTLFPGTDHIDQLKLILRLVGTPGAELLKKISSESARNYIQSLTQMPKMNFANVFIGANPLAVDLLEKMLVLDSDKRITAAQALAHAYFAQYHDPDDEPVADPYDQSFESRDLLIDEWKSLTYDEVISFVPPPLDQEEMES
# Molecular target: p38α (Homo sapiens, UniProt Q16539)
# Details: fold selective over p38β; cited from earlier work
compound,measurement,value
Cn1c(=O)c(Oc2ccc(F)cc2F)cc2cnc(NC(CCO)CCO)nc21 [Pamapimod],Selectivity for p38α over p38β,"p38α, 34X selective over p38β"
